# Results reported in PubChem BioAssay (NCI).
# Values joined by “and” are separate entries in the source; they are usually repeats but may differ in a detail not shown here. Equal entries are not always repeated. This is a selection; strong and weak results do not stand in their true shares.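 Method: cells in 96-well plates; compound added at one concentration; 48 h incubation; percent growth measured; values under 10 scored active.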 Active and inactive are the calls of the source.
# Assays:
# Test in all cases: NCI-60 one-dose screen, 48 h (100 = growth as untreated, 0 = no growth, -100 = all killed)
# Settings in all cases: 10 µM
# NCI-H23 lung = tested on: NCI-H23 lung
# NCI-H226 lung = tested on: NCI-H226 lung
# NCI-H322M lung = tested on: NCI-H322M lung
# HOP-62 NSCLC = tested on: HOP-62 NSCLC
# NCI-H460 lung = tested on: NCI-H460 lung
# HOP-92 NSCLC = tested on: HOP-92 NSCLC
# NCI-H522 lung = tested on: NCI-H522 lung
# A549/ATCC NSCLC = tested on: A549/ATCC NSCLC
# 786-0 renal = tested on: 786-0 renal
# COLO 205 colon = tested on: COLO 205 colon
# DU-145 prostate = tested on: DU-145 prostate
# K-562 leukemia = tested on: K-562 leukemia
# MALME-3M melanoma = tested on: MALME-3M melanoma
# MDA-MB-231 breast = tested on: MDA-MB-231 breast
# RXF 393 renal = tested on: RXF 393 renal
# SF-268 CNS = tested on: SF-268 CNS
# SF-295 CNS = tested on: SF-295 CNS
# SF-539 CNS = tested on: SF-539 CNS
# UACC-257 melanoma = tested on: UACC-257 melanoma
# M14 melanoma = tested on: M14 melanoma
Compound,growth (NCI-H23 lung),growth (NCI-H226 lung),growth (NCI-H322M lung),growth (HOP-62 NSCLC),growth (NCI-H460 lung),growth (HOP-92 NSCLC),growth (NCI-H522 lung),growth (A549/ATCC NSCLC),growth (786-0 renal),growth (COLO 205 colon),growth (DU-145 prostate),growth (K-562 leukemia),growth (MALME-3M melanoma),growth (MDA-MB-231 breast),growth (RXF 393 renal),growth (SF-268 CNS),growth (SF-295 CNS),growth (SF-539 CNS),growth (UACC-257 melanoma),growth (M14 melanoma)
CN/C(N)=N/[N+](=O)[O-],inactive: 104%,inactive: 94.8%,inactive: 116%,inactive: 110%,inactive: 110%,inactive: 86.7%,inactive: 97.4%,inactive: 106%,inactive: 102%,inactive: 113%,inactive: 109%,inactive: 109%,inactive: 128%,inactive: 104%,inactive: 119%,inactive: 96.3%,inactive: 110%,inactive: 104%,inactive: 114%,inactive: 99.5%
O=C(Cl)c1c([N+](=O)[O-])cc([N+](=O)[O-])cc1[N+](=O)[O-],inactive: 78%,inactive: 89.3%,inactive: 88.7%,inactive: 72.9%,inactive: 90.1%,inactive: 100%,inactive: 35.6%,inactive: 93.9%,inactive: 75.1%,inactive: 18.4%,inactive: 28.3%,active: -23.2%,inactive: 91.2%,inactive: 73.1%,inactive: 69.5%,inactive: 74.6%,inactive: 108%,inactive: 92.4%,inactive: 41.6%,inactive: 84.7%
CCCOP(=S)(Cl)OCCC,inactive: 106%,inactive: 110%,inactive: 100%,inactive: 111%,inactive: 104%,inactive: 80.6%,inactive: 98.8%,inactive: 102%,inactive: 101%,inactive: 116%,inactive: 111%,inactive: 103%,inactive: 100%,inactive: 103%,inactive: 110%,inactive: 101%,inactive: 97.4%,inactive: 97.6%,inactive: 109%,inactive: 109%
CC[N+]([O-])(CC)Cc1ccccc1.O=[N+]([O-])c1cc([N+](=O)[O-])c(S(=O)(=O)O)c([N+](=O)[O-])c1,inactive: 106%,inactive: 95%,inactive: 109%,inactive: 111%,inactive: 98.4%,inactive: 78.7%,inactive: 118%,inactive: 100%,inactive: 106%,inactive: 119%,inactive: 101%,inactive: 102%,inactive: 112%,inactive: 118%,inactive: 99.1%,inactive: 88.1%,inactive: 101%,inactive: 91.8%,inactive: 88.4%,inactive: 102%
COc1ccc(C(O)(C(=O)OCCN2CCCCC2)c2ccc(OC)cc2)cc1,inactive: 98%,inactive: 98.1%,inactive: 119%,inactive: 103%,inactive: 108%,inactive: 84.5%,inactive: 87%,inactive: 95.4%,inactive: 101%,inactive: 130%,inactive: 96%,inactive: 66%,inactive: 111%,inactive: 101%,inactive: 96.5%,inactive: 94%,inactive: 103%,inactive: 103%,inactive: 97.2%,inactive: 102%
NN/C(N)=N/[N+](=O)[O-],inactive: 124%,inactive: 100%,inactive: 91.9%,inactive: 102%,inactive: 119%,inactive: 104%,inactive: 92.9%,inactive: 98.2%,inactive: 100%,inactive: 122%,inactive: 123%,inactive: 93.1%,inactive: 107%,inactive: 107%,inactive: 109%,inactive: 114%,inactive: 122%,inactive: 111%,inactive: 90.6%,inactive: 97.3%
Nc1cc([N+](=O)[O-])cc([N+](=O)[O-])c1O,inactive: 98.8% and inactive: 98.9%,inactive: 108% and inactive: 98.3%,inactive: 127% and inactive: 111%,inactive: 103% and inactive: 90.6%,inactive: 139% and inactive: 104%,inactive: 91.8% and inactive: 87.4%,inactive: 108% and inactive: 87.1%,inactive: 105% and inactive: 81.2%,inactive: 111% and inactive: 96.2%,inactive: 116% and inactive: 106%,inactive: 113% and inactive: 108%,inactive: 111% and inactive: 98.8%,inactive: 123% and inactive: 104%,inactive: 104% and inactive: 106%,inactive: 116% and inactive: 107%,inactive: 98% and inactive: 102%,inactive: 101%,inactive: 96.2% and inactive: 101%,inactive: 98.8% and inactive: 91%,inactive: 102%
CN1CCN(CCOC(=O)C(O)(c2ccccc2)c2ccccc2)CC1,inactive: 94.4%,inactive: 95.8%,inactive: 100%,inactive: 99.4%,inactive: 106%,inactive: 105%,inactive: 102%,inactive: 99.9%,inactive: 97.4%,inactive: 102%,inactive: 110%,inactive: 112%,inactive: 85.7%,inactive: 94.7%,inactive: 96.2%,inactive: 98.8%,inactive: 101%,inactive: 98.5%,inactive: 116%,inactive: 98.6%
O=[N+]([O-])N(CCOC(N(F)F)(N(F)F)N(F)F)CC([N+](=O)[O-])([N+](=O)[O-])[N+](=O)[O-],inactive: 105%,inactive: 102%,inactive: 91.1%,inactive: 99.4%,inactive: 107%,inactive: 109%,inactive: 88.8%,inactive: 100%,inactive: 103%,inactive: 92.2%,inactive: 111%,inactive: 98.6%,inactive: 101%,inactive: 114%,inactive: 118%,inactive: 104%,inactive: 94.2%,inactive: 114%,inactive: 100%,inactive: 101%
CC(C)N1CCN(CCOC(=O)C(O)(c2ccccc2)c2ccccc2)CC1,inactive: 100%,inactive: 97.2%,inactive: 106%,inactive: 86.2%,inactive: 110%,inactive: 95.6%,inactive: 88.5%,inactive: 77.2%,inactive: 97.1%,inactive: 97.4%,inactive: 112%,inactive: 91%,inactive: 108%,inactive: 105%,inactive: 117%,inactive: 99.5%,inactive: 97.9%,inactive: 96.3%,–,inactive: 96.8%
CCN(CC)CCOC(=O)C(O)(c1ccccc1)c1cc(C)c(C)c(C)c1C (stereo not drawn),inactive: 94.5%,inactive: 99.1%,inactive: 92.9%,inactive: 84.7%,inactive: 101%,inactive: 83.6%,inactive: 96.4%,inactive: 88%,inactive: 90.7%,inactive: 89.2%,inactive: 100%,inactive: 81.7%,inactive: 107%,inactive: 81.8%,inactive: 79.2%,inactive: 96.1%,inactive: 109%,inactive: 94.2%,inactive: 92.5%,inactive: 92.4%
CN(CCO)CCCl.O=[N+]([O-])c1cc([N+](=O)[O-])c(O)c([N+](=O)[O-])c1,inactive: 96.4%,inactive: 101%,inactive: 106%,inactive: 114%,inactive: 100%,inactive: 67%,inactive: 86%,inactive: 92.1%,inactive: 101%,inactive: 108%,inactive: 105%,inactive: 103%,inactive: 97.6%,inactive: 105%,inactive: 105%,inactive: 102%,inactive: 103%,inactive: 98.7%,inactive: 95.3%,inactive: 102%
CN(CCCl)CCCCCCCl,inactive: 99.4%,inactive: 94.7%,inactive: 101%,inactive: 106%,inactive: 79%,inactive: 97%,inactive: 71.5%,inactive: 76.6%,inactive: 100%,inactive: 98.4%,inactive: 91.8%,inactive: 99.9%,inactive: 95%,inactive: 109%,inactive: 106%,inactive: 89.2%,–,inactive: 98.6%,inactive: 97.2%,inactive: 97.4%
O=[N+]([O-])c1cc([N+](=O)[O-])c(Nc2nnnn2CCO)c([N+](=O)[O-])c1,inactive: 99.3%,inactive: 126%,inactive: 119%,inactive: 115%,inactive: 105%,inactive: 105%,inactive: 90.8%,inactive: 106%,inactive: 105%,inactive: 148%,inactive: 127%,inactive: 96.9%,inactive: 116%,inactive: 118%,inactive: 96.3%,inactive: 117%,inactive: 108%,inactive: 108%,inactive: 89.3%,inactive: 102%
CCOC(=O)Nc1c([N+](=O)[O-])cc([N+](=O)[O-])cc1[N+](=O)[O-],inactive: 97.2%,inactive: 107%,inactive: 112%,inactive: 107%,inactive: 102%,inactive: 97%,inactive: 67.3%,inactive: 93.7%,inactive: 117%,inactive: 95%,inactive: 105%,inactive: 72.7%,inactive: 103%,inactive: 97.1%,inactive: 114%,inactive: 101%,inactive: 110%,inactive: 102%,inactive: 90.2%,inactive: 96.9%
